The list shows a part of the results, in another mix than the full data. Inconclusive results are not listed. A call without a number means that no potency is given here. Calls of active or inactive are those of the source. Calls come from the whole dose curve.
Potency is the fitted concentration of half-maximal effect.

Amino acid sequences for entries named in this document (tags omitted).
UniProt P28223, whole entry, looked up: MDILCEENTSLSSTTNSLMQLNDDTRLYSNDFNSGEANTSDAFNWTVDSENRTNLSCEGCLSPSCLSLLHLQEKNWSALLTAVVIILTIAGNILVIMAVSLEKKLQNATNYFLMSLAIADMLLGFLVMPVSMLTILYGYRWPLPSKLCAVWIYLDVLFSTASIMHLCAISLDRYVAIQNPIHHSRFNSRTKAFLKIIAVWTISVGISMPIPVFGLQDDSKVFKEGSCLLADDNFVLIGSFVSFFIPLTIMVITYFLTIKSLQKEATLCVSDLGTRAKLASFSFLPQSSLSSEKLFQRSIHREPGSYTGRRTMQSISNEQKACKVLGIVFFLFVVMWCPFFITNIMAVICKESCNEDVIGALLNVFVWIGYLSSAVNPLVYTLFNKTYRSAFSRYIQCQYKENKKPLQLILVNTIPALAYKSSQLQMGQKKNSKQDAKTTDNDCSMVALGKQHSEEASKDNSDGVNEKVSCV

The target in this assay is 5-hydroxytryptamine receptor 2A (Homo sapiens) (UniProt P28223). Put plainly: 5-hydroxytryptamine receptor 2A (HTR2A) small molecule agonists, cell-based qHTS assay (AID 1963587). Note: nearly all actives have a fitted effect of over 30% in size. Conditions: HTR2A-CHO cells, calcium flux fluorescence, agonist mode; series mostly up to 76.8 µM. From the text: National Center for Advancing Translational Sciences [NCATS]
Division of Preclinical Innovation [DPI]
U.S. Environmental Protection Agency [EPA]
National Institutes of Environmental Health Sciences [NIEHS]
National Toxicology Program [NTP]
U.S. Food and Drug Administration [FDA]
The HTR2A receptor is a subtype of the 5-HT2 receptor that belongs to the serotonin receptor family and is a G protein-coupled receptor (GPCR). The HTR2A-CHO cell line stably expressing human 5-hydroxytryptamine receptor 2A (HTR2A) can be used for screening agonists of interactions between 5-HT2 and its ligands. The HTR2A-CHO calcium flux assay is a homogeneous fluorescence-based assay for detecting the intracellular calcium level using FDSS kinetic plate reader system.
HTR2A-CHO cells were dispensed at 2000 cells/3uL/well in 1536-well black-clear bottom plates using a Multidrop Dispenser. After the assay plates were incubated at a 37 C/5% CO2 incubator for 18 h, 3 uL of Dye Loading Buffer was transferred to the assay plate by a Flying Reagent Dispenser. The assay plates were incubated at 37 C for 1h. For agonist mode, 23 nL of compounds dissolved in DMSO, positive controls or DMSO only was transferred to the assay plate by a pin tool. The fluorescence intensity in the plates was measured using FDSS 7000EX kinetic plate reader for 2 min at 1 sec intervals.
On the technique in general: In qHTS, concentration-response curves come from the screen itself.
On to `COP(=S)(Cl)OC`, for which the Potency result was “inactive”.

In the case of `CN(N=O)C(=N)N[N+](=O)[O-]`, the Potency entry is “inactive”.

Regarding `COC(=O)Cl`, the Potency entry is “inactive”.

For the molecule `CCCCO[P+](=O)OCCCC`, the Potency result is “inactive”.

For `O=C(Cl)OCCOC(=O)Cl`, the Potency entry was “inactive”.

Turning to `CCOP(=S)(CC)Sc1ccccc1` (stereo not drawn), the Potency entry was “inactive”.

On to `CN(C(=O)Cc1ccccc1)[C@H]1CC[C@@]2(CCCO2)C[C@@H]1N1CCCC1`, for which the Potency result was “inactive”.

`CCCCC(CC)CO[P+](=O)OCC(CC)CCCC` (stereo not drawn): the Potency result is “inactive”.

Take `O=C(Cl)Oc1ccccc1`: the Potency entry was “inactive”.

For `N#CSc1ccc([N+](=O)[O-])cc1[N+](=O)[O-]`, the Potency result is “inactive”.

Consider `CN(C(=O)Cc1ccc(Cl)c(Cl)c1)[C@H]1CC[C@@]2(CCCO2)C[C@@H]1N1CCCC1`, for which the Potency entry was “inactive”.

`Cc1cc([N+](=O)[O-])cc([N+](=O)[O-])c1O`: the Potency entry was “inactive”.

With `O=[N+]([O-])c1ccc(S(=O)(=O)O)c([N+](=O)[O-])c1`, the Potency entry was “inactive”.

`ClP(Cl)c1ccccc1`: the Potency result is “inactive”.

Consider `O=P(Cl)(Oc1ccccc1)Oc1ccccc1`, for which the Potency entry was “inactive”.

With `O=[p+]1oc2ccccc2c2ccccc21` (stereo not drawn), the Potency entry is “inactive”.

Consider `CCOC(=O)Cl`, for which the Potency entry was “inactive”.

As to `O=[As]c1ccccc1` (stereo not drawn), the Potency was active: 43.6 µM.

`CN(C(=O)Cc1cccc2occc12)[C@H]1CC[C@@]2(CCCO2)C[C@@H]1N1CCCC1`: the Potency entry is “inactive”.

As to `O=P(Cl)(Cl)c1ccccc1`, the Potency entry is “inactive”.

In the case of `CCCCOP(OCCCC)OCCCC`, the Potency entry is “inactive”.

In the case of `NC(=O)Nc1ccc([As](=O)(O)O)cc1`, the Potency entry was “inactive”.

In the case of `CCCCCCCCCCCCCC[P+](CCCCCC)(CCCCCC)CCCCCC`, the Potency result was “inactive”.

`O=[P+](Oc1ccccc1)Oc1ccccc1`: the Potency entry is “inactive”.

Regarding `CCC(C)(OOC(C)(C)C)OOC(C)(C)C`, the activation is inactive: 11% [at 15.9 µM].

As to `CC(C)CCCCCCCOP(OCCCCCCCC(C)C)Oc1ccccc1`, the Potency result was “inactive”.

`CCNC(C)Cc1ccc2c(c1)OCO2` (stereo not drawn): the Potency is active: 5.9 µM.

Regarding `CC(C)OP(=S)(OC(C)C)SCCNS(=O)(=O)c1ccccc1`, the Potency result is “inactive”.

(Values after PubChem BioAssay (Tox21).)
